From publication PMC9287434, “Inhibition of NMDA receptors through a membrane-to-channel path” (Nature Communications, 2022) come the findings set out here.

Protein sequences, listed by entry. Tags and fused reporters are not part of them. Residues count along the entry.
UniProt Q00959, 23-1464 A570W: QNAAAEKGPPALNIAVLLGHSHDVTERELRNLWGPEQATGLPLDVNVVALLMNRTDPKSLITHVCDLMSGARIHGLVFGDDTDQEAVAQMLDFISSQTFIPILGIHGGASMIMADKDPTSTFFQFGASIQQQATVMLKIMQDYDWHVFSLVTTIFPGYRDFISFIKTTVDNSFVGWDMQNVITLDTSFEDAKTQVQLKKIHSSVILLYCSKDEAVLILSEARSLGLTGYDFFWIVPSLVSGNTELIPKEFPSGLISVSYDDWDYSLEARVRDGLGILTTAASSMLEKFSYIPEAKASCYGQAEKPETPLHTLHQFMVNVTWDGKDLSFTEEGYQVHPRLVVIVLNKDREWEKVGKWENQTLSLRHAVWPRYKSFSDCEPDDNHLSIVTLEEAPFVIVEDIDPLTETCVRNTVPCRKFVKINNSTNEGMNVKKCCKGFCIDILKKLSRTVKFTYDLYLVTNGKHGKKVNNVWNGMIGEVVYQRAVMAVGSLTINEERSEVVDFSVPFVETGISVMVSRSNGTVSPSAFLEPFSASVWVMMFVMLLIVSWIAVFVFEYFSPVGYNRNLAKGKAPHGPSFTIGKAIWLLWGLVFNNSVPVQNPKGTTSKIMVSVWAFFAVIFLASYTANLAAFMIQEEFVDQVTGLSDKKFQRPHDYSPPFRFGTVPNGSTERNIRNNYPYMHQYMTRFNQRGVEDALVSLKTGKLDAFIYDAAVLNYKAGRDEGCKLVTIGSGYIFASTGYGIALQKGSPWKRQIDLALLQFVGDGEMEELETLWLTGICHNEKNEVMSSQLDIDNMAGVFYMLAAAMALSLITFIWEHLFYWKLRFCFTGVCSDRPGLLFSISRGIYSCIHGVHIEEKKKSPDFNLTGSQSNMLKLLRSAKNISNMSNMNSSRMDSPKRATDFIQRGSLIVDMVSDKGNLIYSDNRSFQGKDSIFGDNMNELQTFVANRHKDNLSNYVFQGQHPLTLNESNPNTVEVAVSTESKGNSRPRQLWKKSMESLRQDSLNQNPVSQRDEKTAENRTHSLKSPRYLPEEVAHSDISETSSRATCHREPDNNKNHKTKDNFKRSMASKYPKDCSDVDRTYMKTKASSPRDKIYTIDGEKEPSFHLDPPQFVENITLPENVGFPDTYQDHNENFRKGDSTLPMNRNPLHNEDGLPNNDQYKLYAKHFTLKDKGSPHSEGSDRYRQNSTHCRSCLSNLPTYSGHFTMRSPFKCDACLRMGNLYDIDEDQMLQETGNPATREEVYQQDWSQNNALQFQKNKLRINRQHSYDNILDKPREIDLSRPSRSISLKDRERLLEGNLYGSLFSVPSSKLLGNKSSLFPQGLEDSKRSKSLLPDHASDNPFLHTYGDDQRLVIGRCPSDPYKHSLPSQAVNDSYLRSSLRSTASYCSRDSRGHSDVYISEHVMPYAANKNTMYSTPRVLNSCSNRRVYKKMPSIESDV

The target in the assay is GluN1/2A(A570W) receptors (Rattus norvegicus, UniProt P35439+Q00959, A570W). Description: Traditional memantine IC50, GluN1/2A(A570W).

Take `CC12CC3CC(C)(C1)CC(N)(C3)C2` [memantine]: it took 933 ± 144 nM to reach half-maximal inhibition (IC50).
